According to patent US10939692B2, “Method for culturing aquatic animals with aspartyl-dipeptides” (Cysal GmbH, priority 2015, dated 2021):

System: Atlantic salmon (Salmo salar L.)
Test: Salmon nutrition experiment (bioavailability, arginine retention, growth, safety)
Details: in vivo
From the text: The objective of the experiment was to examine the in vivo bioavailability of the above described “β-L-aspartyl-R” dipeptides in fish for the first time and consequently to determine their applicability as a substitute of free amino acids sources in Atlantic salmon (Salmo salar L.) nutrition. Therefore, varying supplementation levels of β-L-aspartyl-L-arginine in contrast to a mixture of free amino acids L-arginine and L-aspartic acid were compared.
315 Atlantic salmon (96.33 g±11.47 g; Danish Salmon AS, Hirtshals, DK) were acclimatized for 14 d in the experimental rearing system. The tanks of the system were part of a recirculation system (3.5 m^3 water volume, turnover rate 2 h^−1). The water purification system consisted of a mechanical filter, a moving bed filter, and a protein skimmer. […]
Samples of all experimental groups were analyzed for arginine retention in the lab of LUFA in Kiel. […] Crude protein content (N×6.25) was determined by the Kjeldahl method, crude lipid content after hydrolysis with hydrochloric acid followed by a petroleum ether extraction using a Soxhlet extraction system, DM after drying at 103° C. until constant weight, and ash content after 4 h incineration at 550° C. in a combustion oven (P300; Nabertherm, Lilienthal, Germany). Furthermore, gross energy was measured in a bomb calorimeter (C 200; IKA, Staufen, Germany). […]

Asp/Arg [reference compound]
retention rates compared to the dipeptide form of arginine (slopes of the regression): 19.5%
